{"sequences": {"note": "Protein sequences, listed by entry. Tags and fused reporters are not part of them. Residues count along the entry.", "UniProt Q00535, whole entry": "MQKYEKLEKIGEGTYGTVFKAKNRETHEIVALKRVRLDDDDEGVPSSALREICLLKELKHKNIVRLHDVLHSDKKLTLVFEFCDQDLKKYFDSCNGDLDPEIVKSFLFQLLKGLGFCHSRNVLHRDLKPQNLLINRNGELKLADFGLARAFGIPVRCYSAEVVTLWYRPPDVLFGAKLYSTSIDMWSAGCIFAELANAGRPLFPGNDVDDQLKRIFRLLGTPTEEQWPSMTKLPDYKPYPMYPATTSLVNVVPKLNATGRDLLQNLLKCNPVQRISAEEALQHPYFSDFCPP", "UniProt Q15078, 99-307 partner limits assumed": "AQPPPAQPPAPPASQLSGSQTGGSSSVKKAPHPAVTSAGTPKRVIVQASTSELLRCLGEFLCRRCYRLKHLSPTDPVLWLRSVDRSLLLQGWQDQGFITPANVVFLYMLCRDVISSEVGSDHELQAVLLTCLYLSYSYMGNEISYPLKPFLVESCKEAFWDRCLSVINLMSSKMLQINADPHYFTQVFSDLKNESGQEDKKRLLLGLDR"}, "source": "patent US20120095022A1", "about": "“DERIVATIVES OF 10-AMINO-1,2,3,4-TETRAHYDROPYRIDO[2,1-A]ISOINDOL-6(10BH)-ONES, METHOD FOR PREPARATION THEREOF AND THERAPEUTIC USES THEREOF” (UNIVERSITE D'ORLEANS, priority 2009, published 2012)", "key": {"NCI (lung)": {"system": "NCI (lung)", "experiment": "Cytotoxicity on human cells, automated nuclei counting: NCI", "details": "read-out: IC50 μM Human cells NCI (lung), exposed 24 h to 48 h, 0.1 to 25 μM"}, "Caco (colon)": {"system": "Caco (colon)", "experiment": "Cytotoxicity on human cells, automated nuclei counting: Caco", "details": "read-out: IC50 μM Human cells Caco (colon), exposed 24 h to 48 h, 0.1 to 25 μM"}, "PC3 (prostate)": {"system": "PC3 (prostate)", "experiment": "Cytotoxicity on human cells, automated nuclei counting: PC3", "details": "read-out: IC50 μM Human cells PC3 (prostate), exposed 24 h to 48 h, 0.1 to 25 μM"}, "fibroblast": {"system": "fibroblast", "experiment": "Cytotoxicity on human cells, automated nuclei counting: fibroblast", "details": "read-out: IC50 μM Human cells fibroblast, exposed 24 h to 48 h, 0.1 to 25 μM"}, "Huh7 (liver)": {"system": "Huh7 (liver)", "experiment": "Cytotoxicity on human cells, automated nuclei counting: Huh7", "details": "read-out: IC50 μM Human cells Huh7 (liver), exposed 24 h to 48 h, 0.1 to 25 μM"}, "HCT 116 (colon)": {"system": "HCT 116 (colon)", "experiment": "Cytotoxicity on human cells, automated nuclei counting: HCT 116", "details": "read-out: IC50 μM Human cells HCT 116 (colon); HCT 116 cells, exposed 24 h to 48 h, 0.1 to 25 μM"}, "MDA-MB 231 (breast)": {"system": "MDA-MB 231 (breast)", "experiment": "Cytotoxicity on human cells, automated nuclei counting: MDA-MB 231", "details": "read-out: IC50 μM Human cells MDA-MB 231 (breast); MDA-MB 231 cells, exposed 24 h to 48 h, 0.1 to 25 μM"}, "CDK5/D25": {"target": "CDK5/D25 (Homo sapiens, UniProt Q00535)", "experiment": "CDK5 kinase inhibition (33P-ATP, histone H1)", "assay_type": "biochemical", "details": "read-out: IC50 μM Kinases CDK5, buffer C, 30° C., 15 μM ATP"}}}
{"molecule": "O=C1c2cccc(NC(=S)Nc3cccc4c3C3CC5(CCN3C4=O)SCCS5)c2C2CC3(CCN12)SCCS3", "note": "(centres unmarked)", "values": [{"measurement": "IC50", "setting": "NCI (lung)", "value": 5, "unit": "µM"}, {"measurement": "IC50", "setting": "Caco (colon)", "value": "> 25", "unit": "µM"}, {"measurement": "IC50", "setting": "PC3 (prostate)", "value": 7, "unit": "µM"}, {"measurement": "IC50", "setting": "fibroblast", "value": "> 25", "unit": "µM"}, {"measurement": "IC50", "setting": "Huh7 (liver)", "value": 1, "unit": "µM"}, {"measurement": "IC50", "setting": "HCT 116 (colon)", "value": 3, "unit": "µM"}, {"measurement": "IC50", "setting": "MDA-MB 231 (breast)", "value": "> 25", "unit": "µM"}, {"measurement": "IC50", "setting": "CDK5/D25", "value": "> 10", "unit": "µM"}]}
